One compound from paper PMC9054876, “Population pharmacokinetic analysis of tepotinib, an oral MET kinase inhibitor, including data from the VISION study” (Cancer Chemotherapy and Pharmacology, 2022) can be followed below.

This data set can be described thus: Population PK model of tepotinib (plasma concentrations, 12 clinical studies). The source says:
This step included food status, formulation, and oral dose level.
In the second step, the remaining covariates were further evaluated, including demographics (age, body weight, race, and sex), patient characteristics (disease status, i.e., patient or healthy participant, tumor type, National Cancer Institute Organ Dysfunction Working Group [NCI-ODWG] classification of liver impairment, and baseline tumor burden), laboratory values (serum albumin, total bilirubin, alkaline phosphatase, international normalized ratio, and total protein), and co-medications (opioid analgesics and gefitinib).
SCM was applied in the structural covariate model building step, followed by an adaptive scope reduction (ASR) SCM in the following covariate searching step to reduce run times. For the SCM procedures, the forward selection p value was set to 0.01, and the backward elimination p value to 0.001. The ASR threshold p value was set to the same as the forward p value of 0.01.
Continuous covariate relationships were coded as power models (Formula 1), and categorical covariates were coded as a fractional difference to the most common category (Formula 2). […]

As to `CN1CCC(COc2cnc(-c3cccc(Cn4nc(-c5cccc(C#N)c5)ccc4=O)c3)nc2)CC1` [Tepotinib], where the note is “fractional difference”, the “NCI-ODG class > 0 covariate (liver dysfunction) on D1” value is listed as “–0.332”. The “IIV of relative bioavailability” value (human, in vivo) is on record as 28.3%.
